Reference: patent US7678794B2, “Potentiators of glutamate receptors” (Eli Lilly and Company, priority 2004, dated 2010)

Target: T1, human CysLT1 receptor (Homo sapiens, UniProt Q9Y271)
T1 construct: expressed in transfected cells; host or cells: AV12-664 (ATCC-9595)
T1 sequence (Q9Y271 1-337): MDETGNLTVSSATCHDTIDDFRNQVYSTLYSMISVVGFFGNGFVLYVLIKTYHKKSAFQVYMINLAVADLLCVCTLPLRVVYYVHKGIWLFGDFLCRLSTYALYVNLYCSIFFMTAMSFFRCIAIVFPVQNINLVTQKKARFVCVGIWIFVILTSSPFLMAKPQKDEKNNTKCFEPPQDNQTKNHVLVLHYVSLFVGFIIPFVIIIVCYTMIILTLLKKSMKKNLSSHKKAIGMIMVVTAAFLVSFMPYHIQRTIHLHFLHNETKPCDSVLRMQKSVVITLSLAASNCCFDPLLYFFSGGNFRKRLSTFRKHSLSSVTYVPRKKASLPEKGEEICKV
Assay: Antagonism of LTD4-induced increase in intracellular calcium within a CysLT1 receptor expressing cell line (FLIPR)
Format: cell-based
Conditions: AV12-664 cells expressing human CysLT1; 6 nM LTD4; read-out: antagonism of CysLT1 receptors, IC50
From the text: Antagonism of Cysteinyl-leukotriene D4 (LTD4)—Induced Increase in Intracellular Calcium within a Cysteinyl-Leukotriene 1 (CysLT1) Receptor Expressing Cell Line
Confluent cultures are passaged weekly. Intracellular calcium levels are monitored in the CysLT1-expressing cells with the addition of LTD4, with or without prior exposure to the compounds being tested as antagonists with a Fluorometric Imaging Plate Reader (FLIPR, Molecular Devices). The following buffer is used throughout as an assay buffer: Hanks Buffered Saline Solution without phenol red (GIBCO), with 10 mM HEPES pH 7.4. Cells that had been plated 48 hours prior at a density of 20-25,000 cells per well in a 96-well plate are loaded with a calcium-sensitive dye for 90 minutes at 25° C. Fluo-3 (2 mM in DMSO, Molecular Probes) is mixed with an equal volume of 10% pluronic acid in DMSO, and diluted to 8 μM in the buffer described above containing 10% fetal bovine serum to make the loading buffer. Following loading of the cells, the buffer is removed and replaced with assay buffer prior to drug addition and monitoring on the FLIPR for several minutes. […] Least squares curve fitting with a four-parameter equation is applied to the resulting dose-% inhibition curve to determine the resulting IC50 values.

CCCc1c(OCc2ccc(S(=O)(=O)Nc3cccc(-c4nn[nH]n4)c3)cc2)ccc(C(C)=O)c1O [Example 8, 4-(4-acetyl-3-hydroxy-2-propyl-phenoxymethyl)-N-[3-(2H-tetrazol-5-yl)-phenyl]-benzenesulfonamide] showed an IC50 of less than 500 nM.
